## Yeast mating assay 1: variants of the scFv Ab-14

Binding partner: SARS-CoV-2 spike HR2 peptide, sequence PDVDLGDISGINAS.

Parent scFv Ab-14: VH joined to VL by a 15-residue (Gly4Ser)3 linker. Changes lie in the heavy chain CDRs alone.
VH: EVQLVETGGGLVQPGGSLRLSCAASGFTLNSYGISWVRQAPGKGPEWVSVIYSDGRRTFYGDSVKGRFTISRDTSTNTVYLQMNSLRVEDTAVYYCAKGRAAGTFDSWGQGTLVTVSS
VL: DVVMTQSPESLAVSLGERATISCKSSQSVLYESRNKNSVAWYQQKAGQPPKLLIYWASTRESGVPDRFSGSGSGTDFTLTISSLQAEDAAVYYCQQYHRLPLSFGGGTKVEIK

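The parent was found by panning a naive human phage display library on the peptide. In library AAYL49, one, two or three CDR residues were substituted; doubles and triples were drawn at random. Affinity was read by AlphaSeq, a pooled yeast mating assay with surface-displayed partners. Binding brings cells together so that they mate, and sequencing counts the barcode pairs among the diploids. Read counts were normalised to the haploid input and turned into Kd by a linear fit to BCL2-family pairs of known affinity, for each replicate. The assay was run in three technical replicates.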

Each variant is given by its three heavy chain CDRs, as the data file delimits them; those of the parent are GFTLNSYGIS, VIYSDGRRTFYGDSVK, GRAAGTFDS. Affinities are written as log10 Kd with Kd in nM; a lower number is a better binder. "nd" means that the variant was in the library but no mating with the target was seen in that replicate; the authors take this as a sign of poor binding, and no number exists. As a blank, each scFv also met three strains without target: over library AAYL49, 15% of these pairings were detected, typically at 4.06 and seldom below 2.83. The control count says in how many pairings with the empty strains this scFv gave a signal, with their mean in brackets.

CDR-H1,CDR-H2,CDR-H3,"replicates, log10 nM",signal with controls
TFTLNSYGIS,VIYSDGRRTFYGDSVK,FRAVGTFDS,nd nd nd,0/9
GFTLMSYGIS,VIYSDYRRTFYGDSVK,GRAAGTFDS,nd nd nd,1/9 (4.17)
GFTLGSYDIS,VIYYDGRRTFYGDSVK,GRAAGTFDS,nd nd nd,1/9 (2.99)
GFTLPSYGIK,VIYSAGRRTFYGDSVK,GRAAGTFDS,nd nd 3.64,1/9 (3.87)
GNTLNDYGIS,VIYSDTRRTFYGDSVK,GRAAGTFDS,nd 4.94 nd,5/9 (4.20)
GFTLNSNGIS,VIYSDGRRTFMGDSVM,GRAAGTFDS,3.62 nd nd,1/9 (4.22)
GFTLNSYGIS,VIYSDGRRTFYGDSVK,GRAAGTFTH,0.66 0.88 0.84,2/9 (5.36)
GFTLNSYGIS,VIYSDQRFTFYGDSVK,GRAAGTFDS,nd nd nd,1/9 (3.38)
GFTLNIYGLS,VIYSDGRSTFYGDSVK,GRAAGTFDS,nd nd nd,0/9
GFTLRSYGIS,VIYSDGRRGFYGDSVK,GRAAGTFDS,nd nd nd,2/9 (3.40)
GFTLRSYGIS,VIYSDGRKTFYGDSVK,GRAAGTKDS,1.67 1.33 2.45,1/9 (2.82)
GFTLNSKGIS,VIYMDGRRQFYGDSVK,GRAAGTFDS,nd 4.14 5.53,3/9 (4.07)
GFTLNGYGII,VKYSDGRRTFYGDSVK,GRAAGTFDS,nd nd nd,1/9 (3.32)
GFTLNSYFIS,FIYCDGRRTFYGDSVK,GRAAGTFDS,2.99 nd nd,0/9
GFTLNSYGIP,VIYSDGRRTFYGDSVK,GRAAGTFEK,nd nd nd,1/9 (4.50)
GFTLNSLGIS,VIYSDGRRTFYGDSVK,GRAAGNFDS,2.64 2.25 2.30,3/9 (4.22)
GFLLNSYGIS,VIYSDGRFTCYGDSVK,GRAAGTFDS,nd nd 2.94,1/9 (3.66)
GFTLNSYGIR,VIYSDGRETFEGDSVK,GRAAGTFDS,nd nd nd,0/9
GFTLNSYGIS,VIYSDGRRVFYGDSVH,GAAAGTFDS,2.54 2.10 2.65,3/9 (4.48)
GFTLNMYGIS,VIYSFGRRTFYGDSVK,IRAAGTFDS,4.60 nd nd,1/9 (3.90)
GFTLNSDGIS,VIRSDGRRTFYGDHVK,GRAAGTFDS,nd nd 5.67,2/9 (3.59)
GFTLNLYGIC,CIYSDGRRTFYGDSVK,GRAAGTFDS,nd 3.21 5.71,8/9 (3.75)
FFTLNSYGIS,VIYSDGRRTFYGDEVK,GRAAGTFDM,nd nd 3.76,1/9 (3.14)
GFTLNSYGIS,QIYSRGRRTFIGDSVK,GRAAGTFDS,5.54 4.63 nd,4/9 (4.07)
GFTLNSYGIS,VIQSDGRRTFYFDSVK,GRAAGTFDM,nd nd nd,0/9
PFTLNSYGIS,VIYSDGRRTFYGDSVF,GRAAGSFDS,4.87 nd nd,5/9 (4.28)
GFTLNSYGIS,VSYSDGRLTFMGDSVK,GRAAGTFDS,nd 4.24 3.42,2/9 (4.47)
GFTFNSYGIS,IIYSDGRRTFYGDSVK,GRFAGTFDS,3.54 nd nd,0/9
GFTLNSYGKS,VIYSDGRMTFMGDSVK,GRAAGTFDS,nd nd nd,2/9 (3.17)
GFTLNSYNIS,VILSDGRRTFYVDSVK,GRAAGTFDS,nd 5.58 6.38,4/9 (4.70)
GFTLNSYGIS,SIYSDGRRTFYGDSVK,GRAAGWFYS,nd nd nd,0/9
DFTLNSYGIS,CIYSDGRRTFYGDSVK,GRANGTFDS,nd nd nd,4/9 (3.75)
NFTLNSYGIS,VIYSDGRWTFYGDSVK,GRAAGLFDS,nd nd nd,0/9
GFTLNSYGIS,VIVSDGRRTFYGLSVK,GRAAGTRDS,5.42 nd nd,1/9 (3.90)
GFTLNSYGIS,VIYSDVRRTGYGDSVK,GDAAGTFDS,nd nd nd,1/9 (3.89)
GFTLNSYGIS,VIYSDGRRTFYGDSVW,GRAWRTFDS,nd nd nd,0/9
GFTVNSYGIS,VRYSDGRRTLYGDSVK,GRAAGTFDS,nd nd nd,0/9
GFTCNSYGIS,VIYSEGRRTFPGDSVK,GRAAGTFDS,nd nd nd,1/9 (4.11)
GFTLNSYGIS,VIESDGRRTFYGYSVK,GHAAGTFDS,nd 4.62 nd,2/9 (4.10)
GFTLNSYGIS,CIYSDMRRQFYGDSVK,GRAAGTFDS,nd nd nd,0/9
GFTLNSYGIS,VIYSDGPRTFYMDSSK,GRAAGTFDS,nd nd nd,4/9 (4.29)
GFTLNSYGIS,VIYSSGRRTFWGDSVK,GRAAITFDS,nd nd nd,0/9
GFTLNSMGIG,VIYSDGRDTFYGDSVK,GRAAGTFDS,nd nd 5.15,4/9 (4.41)
GFTLNSYGIS,VIHSDGRRTFYGDSVK,GRAAGELDS,nd nd nd,0/9

From the list, the first 7 with no signal in any replicate:

CDR-H1,CDR-H2,CDR-H3,"replicates, log10 nM",signal with controls
TFTLNSYGIS,VIYSDGRRTFYGDSVK,FRAVGTFDS,nd nd nd,0/9
GFTLMSYGIS,VIYSDYRRTFYGDSVK,GRAAGTFDS,nd nd nd,1/9 (4.17)
GFTLGSYDIS,VIYYDGRRTFYGDSVK,GRAAGTFDS,nd nd nd,1/9 (2.99)
GFTLNSYGIS,VIYSDQRFTFYGDSVK,GRAAGTFDS,nd nd nd,1/9 (3.38)
GFTLNIYGLS,VIYSDGRSTFYGDSVK,GRAAGTFDS,nd nd nd,0/9
GFTLRSYGIS,VIYSDGRRGFYGDSVK,GRAAGTFDS,nd nd nd,2/9 (3.40)
GFTLNGYGII,VKYSDGRRTFYGDSVK,GRAAGTFDS,nd nd nd,1/9 (3.32)

Source: Engelhart et al. 2022 (doi:10.1038/s41597-022-01779-4), MIT Lincoln Laboratory and A-Alpha Bio; data file from the FLAb repository.